Literature values as cited in patent publication US6664393B2 (priority 1999, dated 2003).

The chains behind the UniProt entries cited, without tags or fusion partners. Where a name states a change or a piece, a line headed by the entry shows the natural chain unless it says otherwise.
UniProt P00742: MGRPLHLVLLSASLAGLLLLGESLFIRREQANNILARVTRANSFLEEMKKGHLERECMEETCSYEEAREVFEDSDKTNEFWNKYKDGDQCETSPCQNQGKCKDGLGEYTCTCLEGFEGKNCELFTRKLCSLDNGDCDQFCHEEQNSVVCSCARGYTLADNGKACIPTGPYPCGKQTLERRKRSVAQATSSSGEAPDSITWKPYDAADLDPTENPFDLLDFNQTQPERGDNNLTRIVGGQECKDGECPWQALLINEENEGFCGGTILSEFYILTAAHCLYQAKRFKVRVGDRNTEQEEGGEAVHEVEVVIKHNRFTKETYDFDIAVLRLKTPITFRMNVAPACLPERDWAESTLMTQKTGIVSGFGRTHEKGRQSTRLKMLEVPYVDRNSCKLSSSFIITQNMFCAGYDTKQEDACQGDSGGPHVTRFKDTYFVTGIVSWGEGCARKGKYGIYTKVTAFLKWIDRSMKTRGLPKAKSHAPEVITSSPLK

Molecular target: factor Xa (Homo sapiens, UniProt P00742)
Conditions: read-out: Ki for factor Xa; background, previously reported inhibitors; cited from earlier work

Substance	Ki
antistasin	0.05 nM
tick anticoagulant peptide	0.5 nM
